Results published in US20230322930A1, “USE OF AN ANTI-PD-1 ANTIBODY AND A CYTOTOXIC ANTICANCER DRUG IN TREATMENT OF NON-SMALL CELL LUNG CANCER” (SHANGHAI JUNSHI BIOSCIENCES CO., LTD., priority 2020, published 2023).

Test system: advanced or recurrent NSCLC with EGFR-sensitive mutations after failure of EGFR-TKI treatment
Assay: Phase II clinical trial, antitumor activity study (RECIST v1.1 / irRECIST)
Settings: with pemetrexed + carboplatin

In the case of “toripalimab: anti-PD-1 humanized IgG4 mAb with light and heavy chains of SEQ ID NOs: 9 and 10; described in WO 2014206107”, the “ORR, patients with EGFR L858R mutant” value (17 patients) is reported as 58.8%, the “ORR, patients with exon 19 deletion” value (23 patients) is reported as 43.5% and the “PFS and overall survival, patients with L858R mutation compared with exon 19 deletion” value is reported as “longer”.
